# Experiments:
# By UniProt entry, the sequences of proteins in these tests, tags left out.
# UniProt Q13258, whole entry: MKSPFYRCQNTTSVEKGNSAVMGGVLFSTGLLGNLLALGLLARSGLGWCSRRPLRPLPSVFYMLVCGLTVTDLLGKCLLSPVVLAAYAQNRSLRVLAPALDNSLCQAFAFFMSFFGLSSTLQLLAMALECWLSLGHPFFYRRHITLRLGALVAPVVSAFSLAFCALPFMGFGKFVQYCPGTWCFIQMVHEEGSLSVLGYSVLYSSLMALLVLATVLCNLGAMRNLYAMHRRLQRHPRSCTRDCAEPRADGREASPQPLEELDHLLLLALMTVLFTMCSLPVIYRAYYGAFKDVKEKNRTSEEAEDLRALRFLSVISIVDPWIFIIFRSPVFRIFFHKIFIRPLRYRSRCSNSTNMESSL
# PGD2 receptor [1] = molecular target: T1, PGD2 receptor (Homo sapiens, UniProt Q13258); assay: Antagonistic activity against PGD2 receptor using human platelet (inhibition of PGD2-induced cAMP increase); settings: read-out: Inhibition of Increase of Human Platelet cAMP (IC50); washed human platelets, 0.1-2.0 μM PGD2, IBMX pre-treatment
# Description: Evaluation of Antagonistic Activity Against PGD2 Receptor Using Human Platelet
# Peripheral blood was obtained from a healthy volunteer using a syringe in which 1/9 volume of citric acid/dextrose solution has been previously added. The syringe was subjected to centrifugation at 180 g for 10 min to obtain the supernatant (PRP: platelet rich plasma). The resultant RRP was washed 3 times with a washing buffer and the number of platelet was counted with a micro cell counter. A suspension adjusted to contain platelet at a final concentration of 5×10^8/ml was warmed at 37° C., and then subjected to the pre-treatment with 3-isobutyl-1-methylxanthine (0.5 mM) for 5 min. To the suspension was added a test compound diluted at various concentration. Ten-minute later, the reaction was induced by the addition of 0.1-2.0 μM PGD2 and, 15-minute later, stopped by the addition of HCl. The platelet was destroyed with an ultrasonic homogenizer. After centrifugation, the cAMP in the supernatant was determined by radioassay. PGD2 receptor antagonism of a drug was evaluated as follows. The inhibition rate regarding cAMP increased by the addition of PGD2 was determined at individual concentration, and then the concentration of the drug required for 50% inhibition (IC50) was calculated.
# [2] = system: nasal cavity resistance (nasal occlusion model); assay: Nasal occlusion model: nasal cavity resistance after antigen (OVA) exposure in sensitized guinea pig; settings: 1 mg/kg (i.v.), 10 min before antigen exposure
# Description: Experiment Using Nasal Occlusion Model
# The method used for measuring the nasal cavity resistance and evaluating the anti-nasal occlusion using a guinea pig are described below.
# A 1% ovalbumin (OVA) solution was treated with ultrasonic nebulizer to obtain an aerosol. Hartley male guinea pig was sensitized by inhaling twice the aerosol for 10 min at one-week interval. Seven-day after the sensitization, the guinea pig was exposed to an antigen to initiate the reaction. Then the trachea was incised under the anesthesia with pentobarbital (30 mg/kg, i.p.) and cannulas were inserted into the trachea at the pulmonary and nasal cavity sides. The canal inserted at the pulmonary side was connected with an artificial respirator that provides 4 ml air 60 times/min. After arresting the spontaneous respiration of a guinea pig with Garamin (2 mg/kg, i.v.), air was supplied to the snout side with an artificial respirator at the frequency of 70 times/min, and the flow rate of 4 ml air/time, and the atmospheric pressure required for the aeration was measured by the use of a transducer fitted at the branch. The measurement was used as a parameter of the nasal cavity resistance. The exposure of an antigen was carried out by generating aerosol of 3% OVA solution for 3 min between the respirator and nasal cavity cannula. The test drug was injected intravenously 10 min before the antigen exposure. The nasal resistance between 0 to 30 min was measured continuously and the effect was expressed as inhibition rate to that obtained for vehicle using the AUC for 30 min (on the vertical axis, nasal cavity resistance (cm H2O), and on the horizontal axis, time (0-30 min)) as an indication.
# PGD2 receptor [3] = molecular target: T1, PGD2 receptor; assay: Binding to PGD2 receptor ([3H]PGD2, human platelet membrane fraction); settings: read-out: Activity (binding-inhibitory activity, concentration required for 50% inhibition, IC50), 5 nM [3H]PGD2, 4° C., 90 min
# Description: (1) Preparation of Human Platelet Membrane Fraction
# Blood sample was obtained using a plastic syringe containing 3.8% sodium citrate from a venous of healthy volunteers (adult male and female), put into a plastic test tube and mixed gently by inversion. The sample was then centrifuged at 1800 rpm, 10 min at room temperature, and supernatant containing PRP (platelet rich plasma) was collected. The PRP was re-centrifuged at 2300 rpm, 22 min at room temperature to obtain platelets. The platelets were homogenized using a homogenizer (Ultra-Turrax) followed by centrifugation 3 times at 20,000 rpm, 10 min at 4° C. to obtain platelet membrane fraction. After protein determination, the membrane fraction was adjusted to 2 mg/ml and preserved in a refrigerator at […] until use.
# (2) Binding to PGD2 Receptor
# To a binding-reaction solution (50 mM Tris/HCl, pH 7.4, 5 mM MgCl2) (0.2 ml) were added human platelet membrane fraction (0.1 mg) and 5 nM [3H]PGD2 (115 Ci/mmol), and reacted at 4° C. for 90 min. After the reaction completed, the reaction mixture was filtered through the glass fiber filter paper, washed several times with cooled saline, and measured radioactivity retained on the filter paper. The specific binding was calculated by subtracting the non-specific binding (the binding in the presence of 10 μM PGD2) from the total binding. The binding-inhibitory activity of each compound was expressed as concentration required for 50% inhibition (IC50), which was determined by depicting a substitution curve by plotting the binding ratio (%) in the presence of each compound, where the binding ratio in the absence of a test compound is 100%.
SMILES,IC50 (PGD2 receptor [1]) [µM],Inhibition Rate (%) of nasal cavity resistance (AUC 0-30 min vs vehicle) [2] [%],IC50 (PGD2 receptor [3]) [µM]
CN(C)c1cccc2c(S(=O)(=O)N[C@@H]3[C@@H]4CC[C@@H](C4)[C@H]3C/C=C\CCCC(=O)O)cccc12,0.37,–,–
CC1(C)[C@H]2C[C@H](C/C=C\CCCC(=O)O)[C@@H](NC(=O)c3ccccc3)[C@@H]1C2,–,52,–
CN(C)c1ccc(N=Nc2ccc(S(=O)(=O)N[C@@H]3[C@@H]4CC[C@@H](C4)[C@H]3C/C=C\CCCC(=O)O)cc2)cc1,0.3,44,0.045
CC1(C)[C@H]2C[C@H](C/C=C\CCCC(=O)O)[C@@H](NC(=O)c3ccc(-c4ccccc4)cc3)[C@@H]1C2,0.77,–,–
CC1(C)[C@H]2C[C@H](C/C=C\CCCC(=O)O)[C@@H](NC(=O)c3ccc(Sc4ccccc4)cc3)[C@@H]1C2,–,73,0.003
CC1(C)[C@H]2C[C@H](C/C=C\CCCC(=O)O)[C@@H](NC(=O)c3ccsc3)[C@@H]1C2,–,77,–
COC(=O)CCC/C=C\C[C@@H]1[C@H]2CC[C@H](C2)[C@H]1NS(=O)(=O)c1ccc(-c2ccc(OC)cc2)cc1,12.1,–,–
COC(=O)CCC/C=C\C[C@@H]1[C@H]2CC[C@H](C2)[C@H]1NS(=O)(=O)c1ccc(Cc2ccccc2)cc1,–,66,8.6
O=C(O)CCC/C=C\C[C@@H]1[C@H]2CC[C@H](C2)[C@H]1NS(=O)(=O)c1ccc2cc(-c3ccccc3)[nH]c2c1,–,60,–
COC(=O)CCC/C=C\C[C@@H]1[C@H]2CC[C@H](C2)[C@H]1NS(=O)(=O)c1ccc(C=C2SC(=O)NC2=O)cc1,–,50,0.56
COc1cc2c(cc1S(=O)(=O)N[C@@H]1[C@@H]3CC[C@@H](C3)[C@H]1C/C=C\CCCC(=O)O)oc1ccccc12,–,80,–
COc1ccc(Oc2ccc(C(=O)N[C@@H]3[C@@H](C/C=C\CCCC(=O)O)C[C@H]4C[C@@H]3C4(C)C)cc2)cc1,0.71,–,–
CC1(C)[C@H]2C[C@H](C/C=C\CCCC(=O)O)[C@@H](NC(=O)c3ccc(/C=C\c4ccccc4)cc3)[C@@H]1C2,–,–,0.12
O=C(O)CCC/C=C\C[C@@H]1[C@H]2CC[C@H](C2)[C@H]1NS(=O)(=O)c1ccc(C#Cc2ccccc2)cc1,2.09,–,–
CC1(C)[C@H]2C[C@H](C/C=C\CCCC(=O)O)[C@@H](NC(=O)c3ccc(C#Cc4ccccc4)cc3)[C@@H]1C2,1.52,–,–
CC1(C)[C@H]2C[C@H](C/C=C\CCCC(=O)O)[C@@H](NC(=O)c3ccc(Oc4ccccc4)cc3)[C@@H]1C2,–,54,0.046
CC1(C)[C@H]2C[C@H](C/C=C\CCCC(=O)O)[C@@H](NC(=O)c3ccc(N=Nc4ccccc4)cc3)[C@@H]1C2,0.94,60,–

# Source: patent publication US6384075B1, “Bicyclic amino derivatives and PGD2, antagonist containing them” (Shionogi & Co., Ltd., priority 1995, dated 2002)
